From paper PMC3921447, “Homologous and heterologous desensitization of guanylyl cyclase-B signaling in GH3 somatolactotropes” (Cell and Tissue Research, 2013)

Biological target: T1, GC-A (Rattus norvegicus, UniProt P18910)
T1 construct: Evidence of homologous desensitization of endogenous GC-A- and GC-B-mediated signaling in GH3 cells; endogenous in cells; host or cells: GH3 rat somatolactotrope cells
T1 sequence (P18910 29-1057): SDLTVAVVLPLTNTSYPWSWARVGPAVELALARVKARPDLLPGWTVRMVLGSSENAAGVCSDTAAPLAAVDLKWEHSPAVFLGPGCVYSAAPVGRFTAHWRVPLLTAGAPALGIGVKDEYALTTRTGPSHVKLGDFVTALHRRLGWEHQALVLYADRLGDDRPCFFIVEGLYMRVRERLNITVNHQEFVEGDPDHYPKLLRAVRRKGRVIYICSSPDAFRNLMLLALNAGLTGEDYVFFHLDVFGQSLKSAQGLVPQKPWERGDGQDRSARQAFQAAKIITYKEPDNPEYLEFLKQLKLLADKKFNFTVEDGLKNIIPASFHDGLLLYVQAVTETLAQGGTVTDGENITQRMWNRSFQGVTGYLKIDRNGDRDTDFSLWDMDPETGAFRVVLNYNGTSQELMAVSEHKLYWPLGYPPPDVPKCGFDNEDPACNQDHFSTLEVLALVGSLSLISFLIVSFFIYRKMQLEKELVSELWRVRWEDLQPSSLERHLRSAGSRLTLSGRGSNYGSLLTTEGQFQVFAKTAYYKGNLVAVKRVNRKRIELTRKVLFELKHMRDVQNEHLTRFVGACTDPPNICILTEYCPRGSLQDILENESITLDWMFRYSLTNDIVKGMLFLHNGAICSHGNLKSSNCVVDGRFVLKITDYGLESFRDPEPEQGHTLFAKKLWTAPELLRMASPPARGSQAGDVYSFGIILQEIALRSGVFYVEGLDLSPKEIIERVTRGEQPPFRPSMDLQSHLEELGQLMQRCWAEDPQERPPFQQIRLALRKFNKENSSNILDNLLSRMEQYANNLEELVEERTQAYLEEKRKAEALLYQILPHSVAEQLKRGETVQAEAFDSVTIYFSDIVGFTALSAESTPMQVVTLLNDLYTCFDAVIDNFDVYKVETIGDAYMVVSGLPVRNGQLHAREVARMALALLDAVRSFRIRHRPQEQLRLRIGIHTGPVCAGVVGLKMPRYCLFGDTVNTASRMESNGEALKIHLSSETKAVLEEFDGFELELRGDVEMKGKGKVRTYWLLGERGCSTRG
Assay: ANP time-course of total cGMP accumulation (rapid homologous desensitization) in GH3 cells
Format: cell-based
Conditions: 100 nM ANP, 1 mM IBMX
Procedure: To characterize the activity of these receptors further , a series of experiments was performed to examine mechanisms of receptor desensitization. Total cGMP accumulation was measured to determine the changes in activity of the GC-A and GC-B receptors when treated over a short time-course with their native ligands, namely ANP and CNP, respectively. GH3 cells were plated at 3 × 10^5 cells/well in a 24-well plate, treated with 100 nM of either ANP or CNP in the presence of the phosphodiesterase inhibitor IBMX (1 mM) for 0 to 15 min and assayed for total cGMP concentration (Fig. 2a, b). […] In another experiment performed with 100 nM ANP instead of CNP, a rapid increase in cGMP accumulation (7.91 ± 0.9 to 164.31 ± 9.1pmol/ml per milligram protein) occurred between 0 and 5 min.
Fig. 2 Rapid homologous desensitization of CNP-dependent but not ANP-dependent cGMP accumulation in GH3 cells. Cells were treated with PSS containing either (a) 100 nM CNP or (b) 100 nM ANP for 0–15 min in the presence of 1 mM IBMX.

## CC[C@H](C)[C@@H]1NC(=O)[C@H](CCCNC(=N)N)NC(=O)[C@H](CC(=O)O)NC(=O)[C@H]([C@@H](C)CC)NC(=O)[C@H](CCCNC(=N)N)NC(=O)CNC(=O)CNC(=O)[C@H](Cc2ccccc2)NC(=O)[C@@H](NC(=O)[C@H](CO)NC(=O)[C@H](CO)NC(=O)[C@H](CCCNC(=N)N)NC(=O)[C@H](CCCNC(=N)N)NC(=O)[C@H](CC(C)C)NC(=O)[C@@H](N)CO)CSSC[C@@H](C(=O)N[C@@H](CC(N)=O)C(=O)N[C@@H](CO)C(=O)N[C@@H](Cc2ccccc2)C(=O)N[C@@H](CCCNC(=N)N)C(=O)N[C@@H](Cc2ccc(O)cc2)C(=O)O)NC(=O)CNC(=O)[C@H](CC(C)C)NC(=O)CNC(=O)[C@H](CO)NC(=O)[C@H](CCC(N)=O)NC(=O)[C@H](C)NC(=O)CNC1=O [ANP, atrial natriuretic peptide]
0 min (start of time-course), mean ± SEM, n = 3 in triplicate
  total cGMP accumulation, 0 min: 7.91 ± 0.9 pmol/ml per milligram protein
0-15 min
  maintenance of the initial rate of cGMP accumulation: initial rate of cGMP accumulation was maintained for at least 15 min
5 min, mean ± SEM, n = 3 in triplicate
  total cGMP accumulation, 5 min: 164.31 ± 9.1 pmol/ml per milligram protein
